Values of other authors as cited in patent publication US20040051079A1, “Compression molded product of quick-dissolving chlorinated isocyanuric acid” (published 2004).

Conditions: background art; reference amount of water not given

| Substance | solubility in water |
| --- | --- |
| potassium dichloroisocyanurate | about 25 g |
| sodium dichloroisocyanurate | about 25 g |
